Biological target: cytoplasmic kinase domain of human IGF-1R (IGF-1R-GST) (Homo sapiens, UniProt P08069)
Assay: Insulin-like growth factor-1 receptor (IGF-1R) kinase assay (DELFIA)
Conditions: read-out: IGF1R IC50, IGF-1R-GST kinase activity

The chains behind the UniProt entries cited, without tags or fusion partners. Residues count along the entry.
UniProt P08069, 964-1367 limits assumed: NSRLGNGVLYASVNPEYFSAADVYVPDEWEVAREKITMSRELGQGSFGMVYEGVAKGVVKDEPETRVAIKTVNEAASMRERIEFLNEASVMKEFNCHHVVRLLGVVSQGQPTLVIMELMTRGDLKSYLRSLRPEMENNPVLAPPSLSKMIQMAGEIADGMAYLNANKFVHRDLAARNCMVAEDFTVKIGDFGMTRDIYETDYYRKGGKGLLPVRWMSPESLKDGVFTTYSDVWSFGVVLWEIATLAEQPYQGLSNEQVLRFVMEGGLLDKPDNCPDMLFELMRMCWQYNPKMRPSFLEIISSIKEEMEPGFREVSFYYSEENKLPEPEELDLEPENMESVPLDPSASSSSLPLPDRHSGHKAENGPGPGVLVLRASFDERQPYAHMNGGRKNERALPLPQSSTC

IC50 [pM] | Structure (SMILES)
400 | COc1cc(C2CCCN(CCO)C2)ccc1Nc1ncc(Br)c(NCc2cccc3c2C(C)(C)C(=O)N3)n1 (racemic)
3000 | CCOc1cc(N2CCNCC2)ccc1Nc1ncc(C(F)(F)F)c(NCc2cccc3c2CC(=O)N3)n1
200 | COc1cc(C2CCNCC2)ccc1Nc1ncc(C(F)(F)F)c(NCc2cccc3c2C(C)(C)C(=O)N3)n1
